Data on 27 molecules can be found in PubChem BioAssay AID2216 (Broad Institute, 2009).

SMILES strings stand for the structures. Only a part is listed here, and it is no random draw. Inconclusive results are not listed. Active and inactive are the calls of the source.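 Rule for the calls: active = more than half of the replicate wells show a fall in the fluorescence ratio signal beyond about 16% (limit read from the data, passing the limit was not always enough); inconclusive = exactly half of the replicate wells pass the set limit; inactive = fewer than half of replicates pass the limit.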

The test system of the assay is Ran GTPase (GTP-bound) - importin-beta complex. As to the kind of experiment: disruptors of Ran-importin-beta complex formation – biochemical, FRET, CFP-Ran, YFP-importin-beta, homogeneous, primary screen (AID 2216).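 Note: 0% = DMSO wells and 100% = Ran loaded with GDP instead of GTP.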 Conditions: cell-free CFP-Ran/YFP-importin-beta FRET ratio; hits give high values; concentration not given here.
As for `CCOc1ccc(C)cc1CN(CCCl)CCCl`, the inhibition is inactive: -0.578%. As for `CCOC(=O)N1CCC(Nc2ccc(F)cc2)CC1`, the inhibition was inactive: -2.72%. `COc1ccc(NC2CCN(CCc3ccccc3)CC2)c(OC)c1`: the inhibition is inactive: -1.9%. With `O=C(NCC1(N2CCCCC2)CCCCC1)c1ccc(F)cc1` the figure was inactive: 5.04%; with `CCN1CCC(Nc2cccc(F)c2)CC1`, inactive: 2.41%; with `CN(C)c1ccc(C(=O)NCC2(N3CCCCC3)CCCCC2)cc1`, inactive: 3.12%. As for `COc1cc(OC)cc(C(=O)NCC2(N3CCCCC3)CCCCC2)c1`, the inhibition is inactive: 3.39%. Under `Fc1ccccc1NC1CCN(Cc2ccccc2)CC1` stands inactive: 0.915%; under `Cc1ccc(C(=O)NCC2(N3CCCCC3)CCCCC2)o1`, inactive: 2.7%.

`COc1cccc(C(=O)N(c2cc(C)cc(C)c2)C2CCN(C(=O)OC(C)(C)C)CC2)c1`: the inhibition was inactive: 6.54%. Under `COc1cc(OC)cc(C(=O)NCC2(N3CCOCC3)CCCCC2)c1` stands inactive: -0.188%; under `CCC(CO)(C(=O)OC1CN2CCC1CC2)c1ccccc1` (configuration not stated), inactive: 4.06%. Take `CCCOc1ccc(C)cc1CN(CCCl)CCCl`: the inhibition is inactive: -2.54%. Under `CN1CCC(Nc2ccc(F)c(Cl)c2)CC1` stands inactive: 6.86%; under `CCOc1ncccc1C(=O)NCC1(N2CCOCC2)CCCCC1`, inactive: -2.77%. On to `O=C(O)C1(Nc2ccccc2)CCN(Cc2ccccc2)CC1`, for which the inhibition was inactive: 5.86%.

For `CC(C)(C)OC(=O)N1CCC(Nc2ccccc2)CC1`, the inhibition was inactive: -0.77%. Under `CCCOc1ccc(C(=O)NCC2(N(C)C)CCCCC2)cc1` stands inactive: 1.74%. Under `CCOC(=O)N1CCC(Nc2ccc(C)cc2)CC1` stands inactive: -7.42%; under `N/C(=N\O)c1c(N)no[n+]1[O-]`, inactive: 0.164%.

Regarding `O=C(OC1CN2CCC1CC2)C1c2ccccc2C=Cc2ccccc21` (configuration not stated), the inhibition was inactive: 6.9%. On to `COc1ccc(C(=O)NCC2(N3CCOCC3)CCCCC2)cc1OC`, for which the inhibition was inactive: 2.6%. As to `CN(C)C1(CNC(=O)c2cccc(C#N)c2)CCCCC1`, the inhibition is inactive: -0.542%. Regarding `CCCN1CCC(Nc2cc(OC)cc(OC)c2)CC1`, the inhibition was inactive: -4.59%.

For `c1ccc(CN2CCC(Nc3ccccc3)CC2)cc1`, the inhibition was inactive: -3.14%. As for `N#Cc1ccc(C(=O)NCC2(N3CCCCC3)CCCCC2)cc1`, the inhibition was inactive: 2.36%. Under `CC(C)(C)OC(=O)N1CCC(N(C(=O)c2ccccc2)c2ccc(Cl)cc2)CC1` stands inactive: -1.26%.
